Literature values in PMC6527222 (PLoS ONE, 2019).

Target: α2B-AR
Conditions: given negative; cited from earlier work

Structure (SMILES): COc1ccccc1OCCNCC(O)COc1cccc2[nH]c3ccccc3c12 (stereo not shown) [Carvedilol]
- pKi at α2B: -5.5 ± 0.1
